# Values quoted from earlier work as cited in patent US20150289553A1, “METHOD OF DEVELOPING SAFE AND EFFECTIVE DIETARY SUPPLEMENTS” (priority 2014, published 2015).
# Key:
# [1] = adults (18+ yrs.)
# [2] = 400 IU supplement for 7-12 years; 35,533 men
structure (smiles),measurement,setting,value
"Cc1c(C)c2c(c(C)c1O)CC[C@@](C)(CCC[C@H](C)CCC[C@H](C)CCCC(C)C)O2 [Vitamin E, RRR-alpha-tocopherol]","Upper Limits, CRN-listed Nutrients",[1],"1,000 mg"
same,"Upper Limits, CRN-listed Nutrients",[1]; value in IU in brackets,"mg (1,600 IU)"
same,risk of prostate cancer,[2],increased the risk of prostate cancer

# Where two headings read alike, the source gives them in different places.
